Experimental data: paper PMC7883873, “Discovery of New Catalytic Topoisomerase II Inhibitors for Anticancer Therapeutics” (Frontiers in Oncology, 2021)

By UniProt entry, the sequences of proteins in these tests, tags left out. Where a name states a change or a piece, a line headed by the entry shows the natural chain unless it says otherwise.
UniProt P11388: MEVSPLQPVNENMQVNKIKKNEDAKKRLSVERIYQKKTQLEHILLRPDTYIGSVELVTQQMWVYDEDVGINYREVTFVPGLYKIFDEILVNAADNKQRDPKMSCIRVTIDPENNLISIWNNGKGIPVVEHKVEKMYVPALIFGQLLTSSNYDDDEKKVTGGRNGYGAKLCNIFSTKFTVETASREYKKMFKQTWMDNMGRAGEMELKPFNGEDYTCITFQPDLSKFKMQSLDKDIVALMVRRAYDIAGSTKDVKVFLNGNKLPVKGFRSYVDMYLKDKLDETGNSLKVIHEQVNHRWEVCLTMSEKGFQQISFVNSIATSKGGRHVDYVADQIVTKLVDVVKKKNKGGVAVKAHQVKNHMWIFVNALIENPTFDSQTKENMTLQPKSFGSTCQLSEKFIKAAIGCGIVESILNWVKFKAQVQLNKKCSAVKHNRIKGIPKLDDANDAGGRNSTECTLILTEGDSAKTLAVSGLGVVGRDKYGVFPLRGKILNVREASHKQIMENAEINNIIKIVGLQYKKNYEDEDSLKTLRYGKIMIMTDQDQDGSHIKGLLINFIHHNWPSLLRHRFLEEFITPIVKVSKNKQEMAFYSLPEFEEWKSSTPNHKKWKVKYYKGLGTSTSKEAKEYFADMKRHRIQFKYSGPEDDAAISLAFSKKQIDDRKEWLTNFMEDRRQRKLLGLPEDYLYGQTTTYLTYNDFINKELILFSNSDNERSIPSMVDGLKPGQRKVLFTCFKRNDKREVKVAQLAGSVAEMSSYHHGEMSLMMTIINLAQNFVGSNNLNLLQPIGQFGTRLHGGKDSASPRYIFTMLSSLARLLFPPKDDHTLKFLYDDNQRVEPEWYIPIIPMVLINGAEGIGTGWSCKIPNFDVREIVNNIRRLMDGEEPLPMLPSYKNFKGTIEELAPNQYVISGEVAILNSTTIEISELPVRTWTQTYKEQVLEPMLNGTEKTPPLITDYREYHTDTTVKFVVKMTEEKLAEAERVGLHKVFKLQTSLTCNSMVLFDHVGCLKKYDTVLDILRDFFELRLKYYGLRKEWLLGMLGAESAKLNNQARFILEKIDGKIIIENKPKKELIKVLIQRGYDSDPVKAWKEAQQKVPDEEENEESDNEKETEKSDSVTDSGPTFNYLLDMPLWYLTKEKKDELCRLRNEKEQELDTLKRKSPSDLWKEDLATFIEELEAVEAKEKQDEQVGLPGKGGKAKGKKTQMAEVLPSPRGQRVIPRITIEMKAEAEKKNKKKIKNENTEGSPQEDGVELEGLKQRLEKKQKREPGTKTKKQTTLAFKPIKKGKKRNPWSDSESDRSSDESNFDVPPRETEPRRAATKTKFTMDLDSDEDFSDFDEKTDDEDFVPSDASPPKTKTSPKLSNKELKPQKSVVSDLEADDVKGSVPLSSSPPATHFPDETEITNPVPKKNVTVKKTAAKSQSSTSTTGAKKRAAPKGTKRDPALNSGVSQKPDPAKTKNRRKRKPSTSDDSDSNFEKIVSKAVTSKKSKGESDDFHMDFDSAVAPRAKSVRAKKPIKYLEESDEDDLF

Target: TOP2A (Homo sapiens, UniProt P11388)
Assay: K-DNA decatenation assay
Assay type: biochemical
Parameters: full-length human TOP2A and TOP2B protein (TopoGEN and Inspiralis respectively); purchased TopoGEN TG1001 (human TOP2 assay kit)
Conditions: Figure 3A
Experimental: The human TOP2 assay kit (#TG1001, TopoGEN, Buena Vista, CO) and TOP2B (HTB205, Inspiralis, UK) were used for K-DNA decatenation assays. TOP2 enzymes were incubated with 250 ng of kDNA in a reaction buffer containing 50 mM Tris-HCl (pH 8.0), 150 mM NaCl, 10 mM MgCl2, 2 mM ATP, 0.5 mM DTT, and 30 mg/ml BSA in the presence of candidate compounds or etoposide and ICRF193 as control inhibitors in a final volume of 20 µl. The reaction was incubated at 37C for 2 h after which 4 µl stop solution (5× buffer is 5% Sarkosyl, 0.125% bromophenol blue, 25% glycerol) was added. The reaction was resolved by electrophoresis on a 0.8% agarose gel at 60 V and stained with 0.5 µg/ml ethidium bromide for 15 min. DNA bands were visualized using a gel imager (Gel Doc™ EZ System) and quantified using the Image Studio™ Lite Quantification Software.

Inhibition of TOP2A mediated K-DNA decatenation: but not
SMILES: COc1cc([C@@H]2c3cc4c(cc3[C@@H](O[C@@H]3O[C@@H]5CO[C@@H](C)O[C@H]5[C@H](O)[C@H]3O)[C@H]3COC(=O)[C@H]23)OCO4)cc(OC)c1O [etoposide, reference compound]
